Experimental data: patent publication US20060240535A1, “Carbonyl reductase from lactococcus lactis” (GEORGIA TECH RESEARCH CORPORATION, priority 2004, published 2006)

Tested on: NADPH
Experiment: purified protein, by the assay type
Conditions: other: pH 7.0 and 30° C.

carbonyl reductase from Lactococcus lactis (LL-CR) (Lactococcus lactis subsp. lactis Il1403)
Km: 30 µM
